Test results taken from US8399712B2 (priority 2010, dated 2013).

Assay: Slurrying in water, resulting solid form
Type: physicochemical
Settings: three days

- Behaviour upon slurrying in water: precipitation of pterostilbene
Substance: pterostilbene:piperazine [cocrystal 4]
